From publication PMC4848090, “Mechanistic insight into a peptide hormone signaling complex mediating floral organ abscission” (eLife, 2016)

The chains behind the UniProt entries cited, without tags or fusion partners. Residues count along the entry.
UniProt P47735, 20-620, stated change not applied: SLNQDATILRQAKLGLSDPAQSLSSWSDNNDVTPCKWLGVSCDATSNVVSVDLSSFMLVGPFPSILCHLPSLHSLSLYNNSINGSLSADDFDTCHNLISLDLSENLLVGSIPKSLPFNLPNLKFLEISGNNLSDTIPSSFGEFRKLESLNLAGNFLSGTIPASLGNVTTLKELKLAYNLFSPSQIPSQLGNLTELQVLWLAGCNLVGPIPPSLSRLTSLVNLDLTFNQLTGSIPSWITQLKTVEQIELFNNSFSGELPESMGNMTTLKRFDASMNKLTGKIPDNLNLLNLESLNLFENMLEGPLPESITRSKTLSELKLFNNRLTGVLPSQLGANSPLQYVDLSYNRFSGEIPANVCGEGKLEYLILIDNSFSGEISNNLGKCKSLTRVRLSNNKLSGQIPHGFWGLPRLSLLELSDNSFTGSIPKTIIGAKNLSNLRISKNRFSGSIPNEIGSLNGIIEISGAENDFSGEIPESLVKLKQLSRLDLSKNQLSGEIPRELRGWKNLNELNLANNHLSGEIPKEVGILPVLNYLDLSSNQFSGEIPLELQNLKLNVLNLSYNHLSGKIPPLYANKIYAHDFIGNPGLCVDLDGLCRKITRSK
UniProt Q94AG2, 24-213 N115D/N163Q: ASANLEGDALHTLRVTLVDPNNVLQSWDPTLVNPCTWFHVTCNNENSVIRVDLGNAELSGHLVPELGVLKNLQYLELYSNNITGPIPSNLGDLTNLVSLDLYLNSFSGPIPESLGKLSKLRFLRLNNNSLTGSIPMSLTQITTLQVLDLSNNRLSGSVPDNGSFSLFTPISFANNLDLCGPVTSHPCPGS

Tests used:
[1] = biological target: T1, HAESA - SERK1 ectodomain mixture (Arabidopsis thaliana, UniProt P47735+Q94AG2, N115D/N163Q); test: Isothermal titration calorimetry of IDA peptides titrated into a 1:1 HAESA – SERK1 ectodomain mixture; format: binding; details: ITC
T1 construct: Synthetic genes coding for the Arabidopsis thaliana HAESA (residues 20–620) and SERK1 ectodomains; SERK1 ectodomains (residues 24–213, carrying Asn115→Asp and Asn163→Gln mutations); azurocidin signal peptide (N); made in house; host or cells: Trichoplusia ni Tnao38 insect cells (baculovirus, secreted); proteins expressed and purified separately, then mixed 1:1
Source text: Synthetic genes coding for the Arabidopsis thaliana HAESA (residues 20–620) and SERK1 ectodomains (residues 24–213, carrying Asn115→Asp and Asn163→Gln mutations), codon optimized for expression in Trichoplusia ni (Geneart, Germany), were cloned into a modified pBAC-6 transfer vector (Novagen, Billerica, MA), providing an azurocidin signal peptide and a C-terminal TEV (tobacco etch virus protease) cleavable Strep-9xHis tandem affinity tag. Recombinant baculoviruses were generated by co-transfecting transfer vectors with linearised baculovirus DNA (ProFold-ER1, AB vector, San Diego, CA) followed by viral amplification in Spodoptera frugiperda Sf9 cells. […] The purified HAESA ectodomain was incubated with a synthetic IDA peptide (YVPIPPSA-Hyp-SKRHN, the N-terminal Tyr residue was added to allow for peptide quantification by UV absorbance) and the SERK1 ectodomain in 1:1:1.5 molar ratio. […]
ITC experiments were performed using a Nano ITC (TA Instruments, New Castle, DE) with a 1.0 mL standard cell and a 250 μL titration syringe. […] Molar protein concentrations for SERK1 and HAESA were calculated using their molar extinction coefficient and a molecular weight of 27,551 and 74,896 Da, respectively (determined by MALDI-TOF mass spectrometry). […] Data were analyzed using the NanoAnalyze program (version 2.3.6) as provided by the manufacturer.

[2] = test system: HAESA and SERK1 ectodomains; test: Analytical size-exclusion chromatography of HAESA – SERK1 ectodomain complex formation with peptide; format: binding, Arabidopsis thaliana; details: Superdex 200 HR 10/30, 20 mM citric acid pH 5, 100 mM NaCl; peptide 25 μM; HAESA and SERK1 1:1 molar ratio; UV 280 nm
Description: Gel filtration experiments were performed using a Superdex 200 HR 10/30 column (GE Healthcare) pre-equilibrated in 20 mM citric acid (pH 5) and 100 mM NaCl. 100 μL of the isolated HAESA ectodomain (5.5 mg/mL), of the purified SERK1 LRR domain (3 mg/mL) or of mixtures of HAESA and SERK1 (either in the presence or absence of synthetic wild-type IDA, wild-type IDL1 or mutant IDA peptides at a concentration of 25 μM; 10 mg/mL; samples contained HAESA and SERK1 in 1:1 molar ratio) were loaded sequentially onto the column and elution at 0.5 mL/min was monitored by ultraviolet absorbance at 280 nm.

Structure (SMILES): CC[C@H](C)[C@H](NC(=O)[C@@H]1CCCN1C(=O)[C@@H](NC(=O)[C@@H](N)Cc1ccc(O)cc1)C(C)C)C(=O)N1CCC[C@H]1C(=O)N1CCC[C@H]1C(=O)N[C@@H](CO)C(=O)N[C@@H](C)C(=O)N1C[C@H](O)C[C@H]1C(=O)N[C@@H](CO)C(=O)N[C@@H](C)C(=O)N[C@@H](C)C(=O)N[C@@H](Cc1c[nH]cn1)C(=O)N[C@@H](CC(N)=O)C(=O)O [IDA K66A/R67A]
- N (stoichiometry), protein in cell: HAESA - SERK1 ([1]; 25°C, pH 5.0, 150 μM peptide into 10 μM 1:1 HAESA – SERK1 mixture, ± fitting errors): 0.96 ±0.05
- fold reduced binding affinity when titrated in a HAESA/SERK1 protein solution ([1]; mutant peptide compared with wild-type IDA): 10 fold
- HAESA – SERK1 complex formation in size exclusion chromatography [2]: do not form biochemically stable HAESA-IDA-SERK1 complexes
